Test results taken from PubChem BioAssay AID1272365 (Small Molecule Screening Facility, UW Madison, 2020).
Only a part is listed here, and it is no random draw. Calls of active or inactive are those of the source. Rule as the data show it: active = inhibition mostly above about 37% (no sharp cut-off); inactive = mostly below about 20%.

Tested on: PriA–SSB C-terminal tail interaction (Klebsiella pneumoniae)
Assay: inhibitors of Klebsiella pneumoniae PriA binding to SSB C-terminal tail, primary screen, biochemical, AlphaScreen (AID 1272365);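 also: plate controls were negative control peptide for no effect and reference peptide for full effect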
Conditions: AlphaScreen SSBct-PriA binding, biotinylated peptide; at 33 µM; active compounds read high

Row | SMILES | inhibition
1 | CCC(=O)N(c1ccccc1)C1(COC)CCN(CCc2cccs2)CC1 | inactive: 0.78%
2 | CCC(=O)N(c1ccccc1)C1(COC)CCN(CCn2nnn(CC)c2=O)CC1 | inactive: -4.72%
